# Assay results from ChEMBL document CHEMBL1121721 (J Med Chem, 1981).
# By UniProt entry, the sequences of proteins in these tests, tags left out.
# UniProt P32300, whole entry: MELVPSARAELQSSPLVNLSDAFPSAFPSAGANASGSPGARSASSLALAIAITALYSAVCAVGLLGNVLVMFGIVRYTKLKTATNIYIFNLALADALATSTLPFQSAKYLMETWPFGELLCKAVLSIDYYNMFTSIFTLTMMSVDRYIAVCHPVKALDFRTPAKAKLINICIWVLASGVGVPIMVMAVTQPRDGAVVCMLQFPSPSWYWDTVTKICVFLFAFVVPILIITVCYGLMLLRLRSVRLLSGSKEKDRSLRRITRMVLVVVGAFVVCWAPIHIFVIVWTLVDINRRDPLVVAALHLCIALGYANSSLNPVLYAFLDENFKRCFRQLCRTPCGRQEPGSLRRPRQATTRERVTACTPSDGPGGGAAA
# Molecular target: Delta-type opioid receptor (Mus musculus, UniProt P32300)
# Experiment: Inhibitory potency against delta Opioid receptor delta 1 in longitudinal muscle preparation of mouse vas deferens
structure (smiles),measurement,value
CSCC[C@H](NC(=O)[C@H](Cc1ccccc1)NC(=O)CNC(=O)CNC(=O)[C@@H](N)Cc1ccc(O)cc1)C(=O)O,IC50,13 nM
